System: Bacillus subtilis
Assay: Antibacterial activity against Bacillus subtilis assessed as complete growth inhibition after 24 hrs by standard microdilution assay

Work on `O=C(O)c1ccc(OCc2ccccc2)cc1` yielded an MIC greater than 400 µM.

Source: ChEMBL document CHEMBL3132817 (Medchemcomm, 2013)
